Assay results: PubChem BioAssay (NCI)
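GI50 is the concentration that inhibits growth by half. At the TGI there is no net growth.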

Assays:
Assay in all cases: DTP human tumour cell line panel, 384-well format
[1] = test system: UO-31 renal
[2] = test system: MDA-MB-435 melanoma
[3] = test system: IGROV1 ovarian
[4] = test system: SK-OV-3 ovarian
[5] = test system: UACC-257 melanoma
[6] = test system: NCI/ADR-RES ovarian
[7] = test system: OVCAR-4 ovarian
[8] = test system: NCI-H23 lung
[9] = test system: EKVX NSCLC
[10] = test system: SN12C renal
[11] = test system: HS 578T breast
[12] = test system: MDA-MB-231 breast
[13] = test system: OVCAR-8 ovarian
[14] = test system: SK-MEL-2 melanoma
[15] = test system: OVCAR-5 ovarian
[16] = test system: SF-295 CNS
[17] = test system: HT29 colon
[18] = test system: HOP-62 NSCLC

## CN(CCCl)CCCl
[1]
  GI50: 5.21 µM
  TGI: 29.8 µM
[2]
  GI50: 12.9 µM
  TGI: 27.4 µM
[3]
  GI50: 12.7 µM
[4]
  GI50: 13.4 µM
  TGI: 51.7 µM
[5]
  GI50: 14.1 µM
  TGI: 30.3 µM
[6]
  GI50: 9.94 µM
  TGI: 25.4 µM
[7]
  GI50: 18.2 µM
  TGI: 37.9 µM
[8]
  GI50: 2.96 µM
  TGI: 10.5 µM
[9]
  GI50: 14.5 µM
  TGI: 35.8 µM
[10]
  GI50: 0.812 µM
  TGI: 10.8 µM
[11]
  GI50: 23.8 µM
[12]
  GI50: 14.3 µM
  TGI: 86.9 µM
[13]
  GI50: 7.1 µM
  TGI: 26.6 µM
[14]
  GI50: 24.1 µM
  TGI: 40.2 µM
[15]
  GI50: 5.85 µM
  TGI: 39.6 µM
[16]
  GI50: 3.16 µM
  TGI: 10.6 µM
[17]
  GI50: 1.73 µM
  TGI: 13.9 µM
[18]
  GI50: 3.42 µM
  TGI: 10.6 µM
